Experimental data as given in patent US5567692A, “9-[(substituted glycyl) amido)]-6-demethyl-6-deoxytetracyclines” (priority 1995, dated 1996).

Experiments:
[1] = test system: Klebsiella oxytoca; assay: MIC range, recent clinical and veterinary isolates; type: cell-based; conditions: 18 h, read-out: MIC Range
[2] = test system: Listeria monocytogenes; assay: MIC range, recent clinical and veterinary isolates; type: cell-based; conditions: 18 h, read-out: MIC Range

Compound | MIC [1] [µg/mL] | MIC [2] [µg/mL]
CN(C)CC(=O)Nc1ccc2c(c1O)C(=O)C1=C(O)[C@]3(O)C(=O)C(C(N)=O)=C(O)[C@@H](N(C)C)C3CC1C2 (stereo partly drawn) [CC, [4S-(4alpha,12aalpha)]-4-(Dimethylamino)-9-[[(dimethylamino)acetyl]amino]-1,4,4a,5,5a,6,11,12a-octahydro-3,10,12,12a-tetrahydroxy-1,11-dioxo-2-naphthacenecarboxamide dihydrochloride] | 0.25 to 1 | 
CN(C)[C@@H]1C(O)=C(C(N)=O)C(=O)[C@@]2(O)C(O)=C3C(=O)c4c(O)cccc4[C@@](C)(O)[C@H]3C[C@@H]12 [T, Tetracycline] |  | 0.12 to 0.5 (≈ 0.27 to 1.13 µM)

Converted amounts (≈) assume the structure as drawn. Counter-ions that a name gives are not always drawn.
